Chains of the proteins cited; added tags and fusions are not shown.
UniProt P40337, whole entry, looked up: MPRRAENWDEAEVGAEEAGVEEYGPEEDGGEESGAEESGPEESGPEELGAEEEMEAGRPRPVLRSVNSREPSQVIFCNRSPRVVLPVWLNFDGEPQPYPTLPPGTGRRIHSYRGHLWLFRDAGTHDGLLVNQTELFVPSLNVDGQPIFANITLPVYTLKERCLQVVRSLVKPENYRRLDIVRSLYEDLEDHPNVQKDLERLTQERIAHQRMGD

In ChEMBL document CHEMBL4219039, “Group-Based Optimization of Potent and Cell-Active Inhibitors of the von Hippel-Lindau (VHL) E3 Ubiquitin Ligase: Structure-Activity Relationships Leading to the Chemical Probe …” (J Med Chem, 2018):

The compounds below were run against Von Hippel-Lindau disease tumor suppressor/Elongin B/Elongin C (Homo sapiens, UniProt P40337) (assay: Displacement of FAM-labeled HIF-1alpha peptide from VBC (unknown origin) by fluorescence polarization assay).
Work on CC(=O)N(C)[C@H](C(=O)N1C[C@H](O)C[C@H]1C(=O)NCc1ccc(-c2scnc2C)cc1)C(C)(C)C yielded a Kd of 5500 nM.
CCC(=O)N[C@H](C(=O)N1C[C@H](O)C[C@H]1C(=O)NCc1ccc(-c2scnc2C)cc1)C(C)(C)C gave a Kd of 350 nM.
CC(=O)N[C@@H](C)C(=O)N1C[C@H](O)C[C@H]1C(=O)NCc1ccc(-c2scnc2C)cc1 showed a Kd of 760 nM.
